Source: patent US10562898B2, “Substituted benzenesulfonamides as inhibitors of alpha-4 beta-7 integrin activity” (EA PHARMA CO., LTD., priority 2016, dated 2020)

The chains behind the UniProt entries cited, without tags or fusion partners. Residues count along the entry.
UniProt P13612, 34-1032 limits assumed: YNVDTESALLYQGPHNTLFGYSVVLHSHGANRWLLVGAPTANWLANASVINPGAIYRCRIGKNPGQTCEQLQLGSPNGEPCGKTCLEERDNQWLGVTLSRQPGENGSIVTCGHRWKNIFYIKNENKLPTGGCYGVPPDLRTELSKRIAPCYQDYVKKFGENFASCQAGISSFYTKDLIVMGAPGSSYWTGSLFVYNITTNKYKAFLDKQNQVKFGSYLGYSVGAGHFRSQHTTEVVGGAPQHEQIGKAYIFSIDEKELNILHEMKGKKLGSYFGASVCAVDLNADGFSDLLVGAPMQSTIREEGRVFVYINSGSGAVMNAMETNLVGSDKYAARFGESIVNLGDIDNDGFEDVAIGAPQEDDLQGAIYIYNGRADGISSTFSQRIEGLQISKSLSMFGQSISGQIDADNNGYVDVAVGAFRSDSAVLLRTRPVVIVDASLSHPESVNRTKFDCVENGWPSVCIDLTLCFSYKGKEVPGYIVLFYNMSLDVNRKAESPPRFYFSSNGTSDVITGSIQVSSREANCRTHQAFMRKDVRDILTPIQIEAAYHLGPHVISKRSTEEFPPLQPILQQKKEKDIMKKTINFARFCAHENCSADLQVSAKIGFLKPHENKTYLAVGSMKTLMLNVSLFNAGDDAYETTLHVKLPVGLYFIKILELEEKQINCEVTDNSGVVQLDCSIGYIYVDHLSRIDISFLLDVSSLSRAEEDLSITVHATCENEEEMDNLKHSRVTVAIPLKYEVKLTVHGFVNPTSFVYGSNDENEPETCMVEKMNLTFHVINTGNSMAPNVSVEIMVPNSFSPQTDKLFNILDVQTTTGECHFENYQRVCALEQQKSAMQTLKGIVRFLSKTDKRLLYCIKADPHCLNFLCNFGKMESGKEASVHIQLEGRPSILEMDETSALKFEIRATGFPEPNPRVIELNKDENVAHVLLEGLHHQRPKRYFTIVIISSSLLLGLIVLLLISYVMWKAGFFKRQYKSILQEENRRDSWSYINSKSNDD
UniProt P26010, 20-798 limits assumed: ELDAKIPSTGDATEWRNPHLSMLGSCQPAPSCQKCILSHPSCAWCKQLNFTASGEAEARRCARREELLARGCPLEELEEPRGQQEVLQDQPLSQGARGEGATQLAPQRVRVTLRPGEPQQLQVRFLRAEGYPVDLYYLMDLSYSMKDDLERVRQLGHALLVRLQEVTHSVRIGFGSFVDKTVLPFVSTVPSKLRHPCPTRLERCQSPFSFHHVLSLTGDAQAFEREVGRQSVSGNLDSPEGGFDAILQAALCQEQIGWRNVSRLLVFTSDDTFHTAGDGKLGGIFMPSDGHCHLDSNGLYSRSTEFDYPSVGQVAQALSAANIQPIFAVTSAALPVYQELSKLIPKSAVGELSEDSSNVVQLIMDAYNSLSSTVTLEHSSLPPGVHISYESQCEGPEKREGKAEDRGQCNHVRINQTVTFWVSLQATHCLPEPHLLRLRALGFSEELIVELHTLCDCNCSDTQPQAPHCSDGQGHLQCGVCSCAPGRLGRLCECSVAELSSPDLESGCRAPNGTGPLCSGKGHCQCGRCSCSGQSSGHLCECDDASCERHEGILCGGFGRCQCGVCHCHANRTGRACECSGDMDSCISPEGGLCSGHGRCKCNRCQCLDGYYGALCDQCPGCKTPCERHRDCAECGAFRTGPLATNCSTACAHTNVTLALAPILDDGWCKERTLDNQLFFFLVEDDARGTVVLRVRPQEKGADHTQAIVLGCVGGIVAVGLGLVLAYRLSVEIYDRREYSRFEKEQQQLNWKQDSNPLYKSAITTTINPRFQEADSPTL
UniProt P05556, 21-798 limits assumed: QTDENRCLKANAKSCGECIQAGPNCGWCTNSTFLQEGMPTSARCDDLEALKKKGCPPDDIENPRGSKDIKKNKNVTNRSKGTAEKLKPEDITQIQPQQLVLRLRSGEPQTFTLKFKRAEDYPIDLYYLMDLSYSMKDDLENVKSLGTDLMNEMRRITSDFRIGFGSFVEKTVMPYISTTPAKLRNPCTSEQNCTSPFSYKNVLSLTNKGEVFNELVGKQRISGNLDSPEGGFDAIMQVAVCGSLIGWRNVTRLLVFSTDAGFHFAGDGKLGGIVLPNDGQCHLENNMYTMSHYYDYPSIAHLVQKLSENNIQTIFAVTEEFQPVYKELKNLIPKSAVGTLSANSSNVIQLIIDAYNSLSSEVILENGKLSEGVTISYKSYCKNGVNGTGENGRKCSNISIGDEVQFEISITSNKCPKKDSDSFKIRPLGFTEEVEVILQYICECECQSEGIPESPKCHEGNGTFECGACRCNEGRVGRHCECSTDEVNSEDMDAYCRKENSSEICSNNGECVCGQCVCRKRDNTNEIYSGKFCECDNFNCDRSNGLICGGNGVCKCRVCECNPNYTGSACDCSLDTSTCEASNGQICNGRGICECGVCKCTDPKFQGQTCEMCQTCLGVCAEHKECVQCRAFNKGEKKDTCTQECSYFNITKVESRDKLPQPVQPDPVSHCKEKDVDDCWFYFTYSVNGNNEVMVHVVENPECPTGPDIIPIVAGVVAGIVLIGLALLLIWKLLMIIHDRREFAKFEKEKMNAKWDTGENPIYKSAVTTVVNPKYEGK

How the values were obtained:
α4β7 integrin [1] = molecular target: T1, α4β7 integrin (Homo sapiens, UniProt P13612+P26010); experiment: MAdCAM-1/α4β7 integrin binding inhibitory activity evaluation test in presence of serum; conditions: read-out: α4β7 Serum Added IC50; RPMI-8866 cells, recombinant mouse MAdCAM-1/Fc, 50% human serum
Experimental: (3) MAdCAM-1/α4β7 Integrin Binding Inhibitory Activity Evaluation Test in Presence of Serum (1)
(§1) Each test substance was measured in terms of an ability to inhibit the MAdCAM-1 binding of a human B cell line, namely, a cell line RPMI-8866, which is known to express α4β7 integrin.
(§2) A solution of recombinant mouse MAdCAM-1/Fc (R&D Systems, Inc.) (1 μg/mL) diluted with a buffer A (carbonate buffer, pH 9.6) was added in an amount of 50 μL/well to a 96-well microtiter plate, followed by incubation at 4° C. overnight. After the plate was washed with PBS once, 150 μL/well of Block Ace (Snow Brand Milk Products Co., Ltd.) was added, followed by incubation at room temperature for 2 hours. After removal, the plate was washed with PBS once.
Then, 100 μL of the RPMI-8866 cells (2×10^6 cells/mL) and 100 of the test substance at each of various concentrations diluted with a binding buffer (DMEM containing 40 mM HEPES, 0.2% BSA, and 4 mM MnCl2) were added to the plate coated with the MAdCAM-1/Fc (5×10^5 cells/well) such that 50% human serum was contained at the final concentration. Then, incubation was allowed to proceed at 30° C. for 15 to 60 minutes. […] After 30 μL of a stop solution (Promega, CytoTox 96 Non-Radioactive Cytotoxicity Assay) was added to each, and then an absorbance at 490 nm was measured using a plate reader. […]

α4β7 integrin [2] = molecular target: T1, α4β7 integrin; experiment: MAdCAM-1/α4β7 integrin binding inhibitory activity evaluation test (RPMI-8866 cells binding to MAdCAM-1/Fc); conditions: read-out: α4β7 IC50, recombinant mouse MAdCAM-1/Fc, no serum
Experimental: (2) MAdCAM-1/α4β7 Integrin Binding Inhibitory Activity Evaluation Test
as §1
as §2, with “(0.75” for “(1”
(§3) Then, 100 μL of the RPMI-8866 cells (2×10^6 cells/mL) and 100 μL of the test substance at each of various concentrations diluted with a binding buffer (DMEM containing 40 mM HEPES, 0.2% BSA, and 4 mM MnCl2) were added on the plate coated with the MAdCAM-1/Fc (5×10^5 cells/well), followed by incubation at 30° C. for 15 to 60 minutes. After the cells were bound to the wells, the plate was washed with PBS to remove unbound cells. […] After 30 μL of a stop solution (Promega, CytoTox 96 Non-Radioactive Cytotoxicity Assay) was added to each, and then an absorbance at 490 nm was measured using a plate reader. […]

α4β1 integrin = α4β1 integrin (Homo sapiens, UniProt P05556+P13612); experiment: VCAM-1/α4β1 integrin binding inhibitory activity evaluation test (Jurkat cells binding to VCAM-1/Fc); conditions: read-out: α4β1 IC50, recombinant human VCAM-1/Fc
Experimental: (1) VCAM-1/α4β1 Integrin Binding Inhibitory Activity Evaluation Test
Each test substance was measured in terms of an ability to inhibit the VCAM-1 binding of a human T cell line, namely, a cell line Jurkat, which is known to express α4β1 integrin.
as §2, with “of recombinant human VCAM-1/Fc (R&D Systems,” for “of recombinant mouse MAdCAM-1/Fc (R&D Systems,”, “9.6) was placed in an” for “9.6) was added in an”, “50 μL/well in a 96-well” for “50 μL/well to a 96-well”
as §3, with “the Jurkat” for “the RPMI-8866”, “added to” for “added on”, “the VCAM-1/Fc” for “the MAdCAM-1/Fc”

IC50 (α4β7 integrin [1]): 0.022 µM
IC50 (α4β7 integrin [2]): 0.00093 µM
IC50 (α4β1 integrin): 1.8 µM
SMILES: Cc1c(C)n(C)c(=O)n(-c2ccc(C[C@H](NC(=O)c3cc(F)c(NS(=O)(=O)c4ccc(NC(=O)C(C)(C)C)c(F)c4)cc3F)C(=O)O)cc2)c1=O
